From US12054498B2, “Heteroaromatic macrocyclic ether chemotherapeutic agents” (Nuvalent, Inc., priority 2020, dated 2024)

Sequences of proteins named here, by UniProt entry; tags and fusion partners are left off. A change or cut given only in a name is not applied to a line headed by its entry. A line that says so, or that is headed by a name, gives the form on record, which may keep a tag or linker. Residues count along the entry.
UniProt Q9UM73, 1116-1392 limits assumed: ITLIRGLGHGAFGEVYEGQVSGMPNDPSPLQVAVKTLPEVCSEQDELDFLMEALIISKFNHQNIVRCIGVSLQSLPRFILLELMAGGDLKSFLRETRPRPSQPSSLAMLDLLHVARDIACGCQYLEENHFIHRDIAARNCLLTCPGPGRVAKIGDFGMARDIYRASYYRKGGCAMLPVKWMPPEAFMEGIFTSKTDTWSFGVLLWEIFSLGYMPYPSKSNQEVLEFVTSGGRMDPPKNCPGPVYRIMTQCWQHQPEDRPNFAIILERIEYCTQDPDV
UniProt Q9UM73, 1116-1392 L1196M/G1202R limits assumed: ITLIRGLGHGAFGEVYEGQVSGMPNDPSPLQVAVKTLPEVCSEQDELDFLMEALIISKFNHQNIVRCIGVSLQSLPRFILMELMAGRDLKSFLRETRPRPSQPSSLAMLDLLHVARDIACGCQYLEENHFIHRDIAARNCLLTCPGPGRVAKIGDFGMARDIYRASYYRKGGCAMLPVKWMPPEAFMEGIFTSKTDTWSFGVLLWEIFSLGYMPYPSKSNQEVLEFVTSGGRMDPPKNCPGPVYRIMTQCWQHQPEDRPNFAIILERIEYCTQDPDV
UniProt Q9UM73, with tags, fused parts or gaps limits assumed: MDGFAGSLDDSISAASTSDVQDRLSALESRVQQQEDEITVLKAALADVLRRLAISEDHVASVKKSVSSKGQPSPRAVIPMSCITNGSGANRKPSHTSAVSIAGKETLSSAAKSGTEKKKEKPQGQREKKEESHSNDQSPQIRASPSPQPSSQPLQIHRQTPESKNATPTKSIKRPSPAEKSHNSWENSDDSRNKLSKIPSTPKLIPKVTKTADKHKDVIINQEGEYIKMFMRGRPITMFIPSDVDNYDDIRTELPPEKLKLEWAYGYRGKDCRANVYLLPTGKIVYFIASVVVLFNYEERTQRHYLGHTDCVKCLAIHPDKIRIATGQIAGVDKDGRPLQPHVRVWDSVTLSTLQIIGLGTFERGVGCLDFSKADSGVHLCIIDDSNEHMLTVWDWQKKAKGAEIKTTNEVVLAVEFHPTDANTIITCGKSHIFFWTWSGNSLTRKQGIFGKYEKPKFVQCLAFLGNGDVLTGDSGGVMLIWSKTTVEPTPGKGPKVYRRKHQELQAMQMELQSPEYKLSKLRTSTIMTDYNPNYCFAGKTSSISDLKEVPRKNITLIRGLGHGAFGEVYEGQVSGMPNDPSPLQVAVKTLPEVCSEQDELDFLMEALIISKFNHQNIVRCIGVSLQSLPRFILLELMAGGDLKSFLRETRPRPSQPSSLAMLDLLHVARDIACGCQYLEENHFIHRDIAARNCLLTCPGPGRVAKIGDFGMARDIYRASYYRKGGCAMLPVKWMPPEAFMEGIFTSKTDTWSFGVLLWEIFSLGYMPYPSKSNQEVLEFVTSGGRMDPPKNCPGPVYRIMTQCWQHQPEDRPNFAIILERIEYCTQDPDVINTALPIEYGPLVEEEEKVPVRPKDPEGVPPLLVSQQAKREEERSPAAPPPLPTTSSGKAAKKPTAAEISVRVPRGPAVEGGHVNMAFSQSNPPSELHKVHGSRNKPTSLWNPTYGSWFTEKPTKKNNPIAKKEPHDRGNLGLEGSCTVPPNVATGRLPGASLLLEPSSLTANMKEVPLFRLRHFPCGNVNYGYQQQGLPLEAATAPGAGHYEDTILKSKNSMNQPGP
UniProt Q9UM73, with tags, fused parts or gaps G1202R/L1196M limits assumed: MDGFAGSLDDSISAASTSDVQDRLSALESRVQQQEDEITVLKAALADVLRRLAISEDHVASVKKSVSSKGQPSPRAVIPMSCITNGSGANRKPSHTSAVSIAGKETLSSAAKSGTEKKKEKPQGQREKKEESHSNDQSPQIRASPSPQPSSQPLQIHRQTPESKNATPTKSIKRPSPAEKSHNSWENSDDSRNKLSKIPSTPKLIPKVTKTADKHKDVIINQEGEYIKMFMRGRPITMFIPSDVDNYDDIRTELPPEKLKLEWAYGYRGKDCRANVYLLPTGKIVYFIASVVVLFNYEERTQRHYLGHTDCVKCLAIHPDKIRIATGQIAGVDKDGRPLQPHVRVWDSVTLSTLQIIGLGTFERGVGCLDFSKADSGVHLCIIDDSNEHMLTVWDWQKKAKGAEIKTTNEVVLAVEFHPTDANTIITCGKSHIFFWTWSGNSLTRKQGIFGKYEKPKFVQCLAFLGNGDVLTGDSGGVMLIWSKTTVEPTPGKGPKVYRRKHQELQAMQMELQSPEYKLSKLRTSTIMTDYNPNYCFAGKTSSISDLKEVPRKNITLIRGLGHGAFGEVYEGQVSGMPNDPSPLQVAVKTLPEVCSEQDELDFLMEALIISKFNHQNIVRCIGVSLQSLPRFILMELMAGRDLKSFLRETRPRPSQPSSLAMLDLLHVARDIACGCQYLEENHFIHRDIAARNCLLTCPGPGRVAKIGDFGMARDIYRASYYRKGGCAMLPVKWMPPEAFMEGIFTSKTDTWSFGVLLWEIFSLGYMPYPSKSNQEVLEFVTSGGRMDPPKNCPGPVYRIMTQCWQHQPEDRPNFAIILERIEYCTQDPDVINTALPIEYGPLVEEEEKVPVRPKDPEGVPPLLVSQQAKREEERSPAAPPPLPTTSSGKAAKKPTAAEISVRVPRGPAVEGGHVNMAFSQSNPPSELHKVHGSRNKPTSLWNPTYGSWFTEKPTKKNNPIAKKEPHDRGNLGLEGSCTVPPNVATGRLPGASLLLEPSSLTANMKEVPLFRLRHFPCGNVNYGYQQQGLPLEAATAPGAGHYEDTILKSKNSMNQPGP
UniProt P08922, 1883-2347 limits assumed: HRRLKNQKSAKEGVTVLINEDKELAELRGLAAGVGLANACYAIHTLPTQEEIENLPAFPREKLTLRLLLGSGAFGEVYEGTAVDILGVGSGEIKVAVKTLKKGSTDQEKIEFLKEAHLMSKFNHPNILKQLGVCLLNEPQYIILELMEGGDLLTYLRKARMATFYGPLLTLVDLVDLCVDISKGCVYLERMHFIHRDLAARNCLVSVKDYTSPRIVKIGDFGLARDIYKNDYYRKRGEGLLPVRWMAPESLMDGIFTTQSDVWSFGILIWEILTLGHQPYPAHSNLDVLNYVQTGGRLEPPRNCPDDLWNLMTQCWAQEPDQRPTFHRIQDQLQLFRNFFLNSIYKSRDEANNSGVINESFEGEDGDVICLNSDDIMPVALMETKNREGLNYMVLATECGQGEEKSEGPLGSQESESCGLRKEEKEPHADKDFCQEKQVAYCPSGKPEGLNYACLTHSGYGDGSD
UniProt P08922, 1945-2222 limits assumed: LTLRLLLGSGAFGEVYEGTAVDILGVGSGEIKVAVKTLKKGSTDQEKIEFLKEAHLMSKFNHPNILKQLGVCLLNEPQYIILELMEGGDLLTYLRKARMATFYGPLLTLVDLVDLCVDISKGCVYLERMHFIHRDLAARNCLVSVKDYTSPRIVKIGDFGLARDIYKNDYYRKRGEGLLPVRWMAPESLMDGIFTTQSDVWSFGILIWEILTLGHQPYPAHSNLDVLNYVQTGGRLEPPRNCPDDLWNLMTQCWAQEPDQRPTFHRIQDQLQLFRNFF
UniProt P08922, 1883-2347 G2032R limits assumed: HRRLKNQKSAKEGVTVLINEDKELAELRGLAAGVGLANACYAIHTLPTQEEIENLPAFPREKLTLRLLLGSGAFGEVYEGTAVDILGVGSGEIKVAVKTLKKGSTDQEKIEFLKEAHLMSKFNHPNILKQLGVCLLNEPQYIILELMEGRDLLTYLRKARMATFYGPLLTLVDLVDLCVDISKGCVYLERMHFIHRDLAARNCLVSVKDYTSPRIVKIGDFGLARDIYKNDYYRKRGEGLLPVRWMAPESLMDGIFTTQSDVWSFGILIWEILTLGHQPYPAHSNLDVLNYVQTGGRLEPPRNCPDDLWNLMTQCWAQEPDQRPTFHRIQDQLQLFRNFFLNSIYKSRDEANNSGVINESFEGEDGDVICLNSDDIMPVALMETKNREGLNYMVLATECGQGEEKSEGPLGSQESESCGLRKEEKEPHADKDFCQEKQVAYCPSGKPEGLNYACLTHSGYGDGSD
UniProt P08922, 1945-2222 G2032R limits assumed: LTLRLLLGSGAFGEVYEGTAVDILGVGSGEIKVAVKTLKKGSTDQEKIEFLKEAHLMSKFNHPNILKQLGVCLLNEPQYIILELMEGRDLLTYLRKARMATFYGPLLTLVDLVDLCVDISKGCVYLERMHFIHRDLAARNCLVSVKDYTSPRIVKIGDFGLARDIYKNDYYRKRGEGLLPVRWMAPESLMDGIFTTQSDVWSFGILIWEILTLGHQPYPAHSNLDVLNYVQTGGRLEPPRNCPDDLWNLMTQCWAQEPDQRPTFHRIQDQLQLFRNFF
UniProt P04629, 510-781 limits assumed: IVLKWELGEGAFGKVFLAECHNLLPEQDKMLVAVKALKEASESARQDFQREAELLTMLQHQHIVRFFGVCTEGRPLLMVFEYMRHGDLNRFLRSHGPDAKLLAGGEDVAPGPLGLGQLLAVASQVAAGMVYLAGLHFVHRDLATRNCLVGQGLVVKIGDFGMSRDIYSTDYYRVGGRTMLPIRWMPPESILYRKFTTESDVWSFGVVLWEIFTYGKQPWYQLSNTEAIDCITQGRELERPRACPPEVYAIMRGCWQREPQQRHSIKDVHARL
UniProt P04629, 510-796 limits assumed: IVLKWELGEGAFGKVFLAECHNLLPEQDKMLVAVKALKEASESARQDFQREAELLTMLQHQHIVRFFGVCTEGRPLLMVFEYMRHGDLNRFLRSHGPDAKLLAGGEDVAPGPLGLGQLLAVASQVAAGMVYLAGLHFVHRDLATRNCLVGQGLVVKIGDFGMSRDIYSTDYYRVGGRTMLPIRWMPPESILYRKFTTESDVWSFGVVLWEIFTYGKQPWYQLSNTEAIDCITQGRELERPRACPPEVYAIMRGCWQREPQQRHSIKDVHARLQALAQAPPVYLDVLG

How the values were obtained:
[1] = molecular target: ALK-wt (Homo sapiens, UniProt Q9UM73); assay: Biochemical kinase assay, ALK-wt kinase domain; details: read-out: ALK-wt Ki^app; apparent inhibitory constant, Morrison equation; ATP 2 mM in substrate solution
[2] = molecular target: ALK L1196M/G1202R (Homo sapiens, UniProt Q9UM73, G1202R/L1196M); assay: Biochemical kinase assay, ALK L1196M/G1202R kinase domain; details: read-out: ALK-L1196M-G1202R Ki^app; apparent inhibitory constant, Morrison equation; ATP 2 mM in substrate solution
[3] = molecular target: ROS1-wt (Homo sapiens, UniProt P08922); assay: Biochemical kinase assay, ROS1-wt kinase domain; details: read-out: ROS1-wt Ki^app; apparent inhibitory constant, Morrison equation; ATP 2 mM in substrate solution
[4] = molecular target: ROS1-G2032R (Homo sapiens, UniProt P08922, G2032R); assay: Biochemical kinase assay, ROS1-G2032R kinase domain; details: read-out: ROS1-G2032R Ki^app; apparent inhibitory constant, Morrison equation; ATP 2 mM in substrate solution
[5] = molecular target: TRKA-wt (Homo sapiens, UniProt P04629); assay: Biochemical kinase assay, TRKA-wt kinase domain; details: read-out: TRKA-wt Ki^app; apparent inhibitory constant, Morrison equation; ATP 2 mM in substrate solution
[6] = molecular target: Ba/F3 cells CD74-ROS1 wild-type (wt) (Homo sapiens, UniProt P08922); assay: Ba/F3 cell proliferation assay, CD74-ROS1 wild-type; type: cell-based; details: read-out: CD74-ROS1-wt IC50, 72 hours, CellTiter-Glo
[7] = molecular target: Ba/F3 cells CD74-ROS1 G2032R (Homo sapiens, UniProt P08922, G2032R); assay: Ba/F3 cell proliferation assay, CD74-ROS1 G2032R; type: cell-based; details: read-out: CD74-ROS1-G2032R IC50, 72 hours, CellTiter-Glo
[8] = molecular target: Ba/F3 cells EML4-ALK wt (variant 1) (Homo sapiens, UniProt Q9UM73); assay: Ba/F3 cell proliferation assay, EML4-ALK wt (variant 1); details: read-out: EML4-ALK-wt IC50, 72 hours, CellTiter-Glo
[9] = molecular target: Ba/F3 cells EML4-ALK L1196M/G1202R (variant 1) (Homo sapiens, UniProt Q9UM73, G1202R/L1196M); assay: Ba/F3 cell proliferation assay, EML4-ALK L1196M/G1202R (variant 1); details: read-out: EML4-ALK-L1196M-G1202R IC50, 72 hours, CellTiter-Glo
[10] = molecular target: Ba/F3 cells TPM3-TRKA (Homo sapiens, UniProt P04629); assay: Ba/F3 cell proliferation assay, TPM3-TRKA; details: read-out: TPM3-NTRK1-wt IC50, 72 hours, CellTiter-Glo
[11] = test system: TPM3-NTRK1-wt IC50 / primary target IC50 (e.g. CD74-ROS1-wt); assay: TRKA selectivity in Ba/F3 cells (TRKA potency divided by primary target potency)

CCn1ncc2c1-c1cnc(N)c(c1)O[C@H](C)c1cc(F)ccc1-c1cc(C(F)(F)F)nn1C2
Ki [1]: < 50 nM
Ki [2]: < 50 nM
Ki [3]: < 50 nM
Ki [4]: < 50 nM
Ki [5]: < 50 nM
IC50 [6]: 0.1 to 50 nM
IC50 [7]: 0.1 to 50 nM
IC50 [8]: 0.1 to 50 nM
IC50 [9]: 50 to 500 nM
IC50 [10]: 50 to 500 nM
TPM3-NTRK1-wt/CD74-ROS1-G2032R selectivity ratio ([11]; TRKA potency / CD74-ROS1-G2032R potency): A (bin A for very high selectivity, ratio >30-fold)
TPM3-NTRK1-wt/CD74-ROS1-wt selectivity ratio ([11]; TRKA potency / CD74-ROS1-wt potency): A (bin A for very high selectivity, ratio >30-fold)
TPM3-NTRK1-wt/EML4-ALK-L1196M-G1202R selectivity ratio ([11]; TRKA potency / EML4-ALK-L1196M-G1202R potency): D (bin D for low selectivity, ratio <1)
TPM3-NTRK1-wt/EML4-ALK-wt selectivity ratio ([11]; TRKA potency / EML4-ALK-wt potency): C (bin C for moderate selectivity, ratio ≥1)
